## Binding of CDR-mutated scFvs to a peptide of the spike HR2 region

Target peptide (SARS-CoV-2 spike, HR2 region): PDVDLGDISGINAS

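Variants in AAYL52 differ from the parent at up to three CDR positions; double and triple changes were sampled at random. AlphaSeq pools MATa yeast showing the antibodies with MATalpha yeast showing the peptide. Binding brings cells together so that they mate, and sequencing counts the barcode pairs among the diploids. Read counts were normalised to the haploid input and turned into Kd by a linear fit to BCL2-family pairs of known affinity, for each replicate. Each pool was mated in three replicate cultures.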

Parent: Ab-95, a human scFv built as VH, the linker GGGGSGGGGSGGGGS, VL. Only the CDRs of the light chain vary.
VH: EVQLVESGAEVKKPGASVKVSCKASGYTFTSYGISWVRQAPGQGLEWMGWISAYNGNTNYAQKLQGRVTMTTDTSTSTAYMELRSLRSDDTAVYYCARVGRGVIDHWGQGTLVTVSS
VL: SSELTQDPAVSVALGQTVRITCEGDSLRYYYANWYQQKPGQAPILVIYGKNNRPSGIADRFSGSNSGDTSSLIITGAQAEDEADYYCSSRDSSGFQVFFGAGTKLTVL

Each variant is given by its three light chain CDRs, as the data file delimits them; those of the parent are EGDSLRYYYAN, GKNNRPS, SSRDSSGFQVF.
This list gathers variants with a substitution at Y29 (VL, numbered from residue 1).
The Kd shown is the geometric mean over detected replicates; a lower Kd is a better binder.
"no signal" marks a missing value. The strain was present, yet no cells mated with the target were sequenced in any replicate, which points to weak or no binding.
Background: pairings of library AAYL52 with three empty control strains gave a value in 28% of cases (median 8.2 µM, 5th percentile 800 nM). Values in that range, when seen in few replicates, are hard to tell from nonspecific mating.

CDR-L1	CDR-L2	CDR-L3	Kd (apparent)	replicates with signal
EGDSLRSYYAA	GKNNRAS	SSRDSSGFQVF	36 µM	1/3
EGDSLRHYYAN	GKNNRPS	SSRDSSGFQWT	no signal	0/3
EGDSLRAYYAN	GKNNRPS	SSRSSSAFQVF	200 nM	2/3
ESDSLRTYYAN	GNNNRPS	SSRDSSGFQVF	270 nM	3/3
EGDSLRIYYNN	GKNNRPS	SSRDSSGCQVF	2.3 µM	2/3
EGDSLRLYYRN	GKNNRPD	SSRDSSGFQVF	2.5 µM	1/3
EGDSGRDYYKN	GKNNRPS	SSRDSSGFQVF	15 nM	3/3
EGDSLRCYYAN	GKNNRPS	SSRDPVGFQVF	2.3 µM	1/3
DGDSLRSYYAN	GKNNRPS	SSRDSSGFQVG	130 nM	3/3
EGDSLRFYYAG	EKNNRPS	SSRDSSGFQVF	20 µM	3/3
EGDSYRFYYAN	GKNNRPS	SSRDSSGFQVF	2.3 µM	2/3
EGDSLRNYYAN	GKNNRPS	SWRHSSGFQVF	37 nM	3/3
EGDSLRRTYAN	GKNTRPS	SSRDSSGFQVF	19 nM	3/3
EGDSCRSYYAN	GKNNDPS	SSRDSSGFQVF	72 µM	1/3
EGDELRMYYAN	GKNNRPS	SSRDSSGFQCF	3.2 µM	1/3
EGDSLRLYYAN	GKNNAPS	SSRDSSGFQTF	600 nM	1/3
EGDSLRIYYAN	GKNNRPS	SRRDWSGFQVF	16 µM	2/3
EGDSLRDYYAN	GKHNRPS	SSDDSSGFQVF	7.5 µM	1/3
EGDSLRWYTAN	GHNNRPS	SSRDSSGFQVF	290 nM	3/3
EGDSLRTYYAN	GKNNRPS	SSRHSSGFQVF	480 nM	3/3
EGDSLRRYYAN	GKPNRPS	QSRDSSGFQVF	290 µM	1/3
EGDSLRSYYAN	VKNNRPS	SSRDSSGFQVF	1.0 µM	3/3
EGDSLRSYYAN	NKNNRPS	SSRDSSGFQVF	630 nM	3/3
EGDSLRDYYAN	GKNNRPS	SSRDSSNPQVF	260 nM	3/3
EGDQLRDYYAN	GKNNRPS	SSRISSGFQVF	1.8 µM	2/3
EGDSLRSYFAN	GKNNRPS	SSRWSSGFQVF	690 nM	3/3
EGDSLRFYYAN	KKNNRPS	SSRDSSGFFVF	420 µM	1/3
LGDSLRSYYAN	GKNNRPS	SSRFSSGFQVF	570 nM	3/3
EGDSLRLYDAN	GKNNRPS	SSRDSSGFQVQ	650 nM	3/3
EGDSLRPYYAN	GKNNRPS	LSRDSSGDQVF	no signal	0/3

The last 3 entries again:

CDR-L1	CDR-L2	CDR-L3	Kd (apparent)	replicates with signal
LGDSLRSYYAN	GKNNRPS	SSRFSSGFQVF	570 nM	3/3
EGDSLRLYDAN	GKNNRPS	SSRDSSGFQVQ	650 nM	3/3
EGDSLRPYYAN	GKNNRPS	LSRDSSGDQVF	no signal	0/3

Parent in this assay: reference entry 200 nM, copy in this library 180 nM.

Values reported by Engelhart et al. 2022, doi:10.1038/s41597-022-01779-4 (FLAb copy).